Experimental data published in patent US20180185360A1, “CGRP RECEPTOR ANTAGONIST COMPOUNDS FOR TOPICAL TREATMENT OF SKIN DISORDERS” (GALDERMA RESEARCH & DEVELOPMENT, priority 2015, published 2018).

Tested on: αCGRP-induced skin blood perfusion increase
Test: CGRP-induced mice model of vasodilatation (Laser Doppler skin blood perfusion, right ear)
Type: in vivo, BALB/c mice
Details: after intravascular injection of αCGRP 20 μg/kg; p=0.0014
Method: This study has been conducted on BALB/c mice, 5 mice per group have been used. Animals were topically treated with multiple doses of MK3207 (0.003% to 3%) in ethanol or with ethanol alone (20 μl, right ear), 90 minutes before the intravenous injection of αCGRP 20 μg/kg (2 hours before sampling).
Anaesthesia was performed 15 minutes before the intravenous injection of αCGRP or NaCl 0.9%. Body temperature was maintained at 35° C.-37° C. using an automated heating pad. Images were obtained from Laser Doppler perfusion imaging PIM3 (Perimed, France). For each mouse, the skin blood perfusion was evaluated every minute on the right ear. The laser beam of the PIM3 scanned a skin area of 2×2 cm. Prior to the treatment, 2 scans were performed.
The duration of the recording was 22 minutes in total.
The blood perfusion is mapped as colour coded images at intervals of 1 min. For each mouse ear, the area corresponding to the internal part of the ear is defined and adjusted for each image. […]
The software calculates the erythematous surface (S) and the mean of the blood perfusion intensity (I) in this surface for the region of interest for all the images. […] For each time of kinetic, the relative area of blood perfusion is calculated as follow: Relative area of perfusion=(I/I ref)×S
And the AUC is calculated from t=0 to t=15 min.

Substance: αCGRP: Calcitonin gene-related peptide, injected intravenously to induce vasodilatation (ACDTATCVTHRLAGLLSRSGGVVKNNFVPTNVGSKAF; Calcitonin gene-related peptide 1; UniProt P06881 83-119, looked up) [reference compound]
- increase of the basal blood perfusion in the skin: 242%
